{"sequences": {"note": "Sequences of proteins named here, by UniProt entry; tags and fusion partners are left off. A change or cut given only in a name is not applied to a line headed by its entry.", "UniProt P43116": "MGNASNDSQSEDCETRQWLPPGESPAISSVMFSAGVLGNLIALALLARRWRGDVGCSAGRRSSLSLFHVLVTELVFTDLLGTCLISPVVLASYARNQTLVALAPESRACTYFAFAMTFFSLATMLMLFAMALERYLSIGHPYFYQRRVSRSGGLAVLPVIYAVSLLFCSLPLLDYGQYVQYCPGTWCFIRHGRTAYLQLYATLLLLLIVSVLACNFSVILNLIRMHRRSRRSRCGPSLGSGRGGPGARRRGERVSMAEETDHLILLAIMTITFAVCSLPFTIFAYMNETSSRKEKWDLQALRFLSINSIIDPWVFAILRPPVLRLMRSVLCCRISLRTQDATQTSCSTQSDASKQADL"}, "source": "PubChem BioAssay AID1422", "about": "(Emory University Molecular Libraries Screening Center, 2008)", "note": "The entries are a selection whose mix differs from that of the whole data set. Calls of active or inactive are those of the source.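 How the source made its calls: active means percent inhibition above 40 after rounding to a whole number; inactive means the rest.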", "data": [{"target": "Prostaglandin E2 receptor EP2 subtype (Homo sapiens) (UniProt P43116)", "assay": "human EP2 receptor antagonists, primary screen, TR-FRET cAMP, C6 glioma cells (AID 1422);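 further: rat C6 glioma host cells with rolipram phosphodiesterase inhibitor present; the protocol text gives 20 µM as final concentration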", "settings": "C6 glioma cells expressing human EP2, cAMP TR-FRET; at 25 µM; stronger effect = higher value; cells stimulated with saturating PGE2", "values": [{"smiles": "CCOC(=O)Nc1ccc([As](=O)(O)O)c(O)c1", "inhibition": "inactive: 9.02%"}, {"smiles": "CCC(C)N(CC(C)C)C(=S)SC(NC(C)=O)C(Cl)(Cl)Cl", "note": "(centres undefined)", "inhibition": "inactive: 8.38%"}, {"smiles": "CCOC(=O)c1ccc(NC(=O)C(C)(CCl)SC)cc1", "note": "(centres undefined)", "inhibition": "inactive: 7.09%"}, {"smiles": "O=C(O)[C@@H](O)c1ccc([As](=O)(O)O)cc1", "inhibition": "inactive: 9.82%"}, {"smiles": "COP1(=S)c2c(C)nn(CCC#N)c2N=C(c2ccc(F)cc2)N1C", "note": "(centres undefined)", "inhibition": "inactive: 7.22%"}, {"smiles": "COc1ccc(N/C(=N/P(=O)(N2CCOCC2)N2CCOCC2)N2CCOCC2)cc1", "inhibition": "inactive: 6.53%"}, {"smiles": "COc1cc(I)ccc1[As](=O)(O)O", "inhibition": "inactive: 4.28%"}, {"smiles": "NC(=O)Nc1cc([As](=O)(O)O)cc(I)c1O", "inhibition": "inactive: 37.5%"}, {"smiles": "COc1ccc2nc(NP(=O)(c3ccccc3)c3ccccc3)sc2c1", "inhibition": "inactive: 2.69%"}, {"smiles": "Cc1cc(=O)[nH]c(N[N+](=O)[O-])n1", "inhibition": "inactive: 9.42%"}, {"smiles": "O=C(OC1CN2CCC1CC2)C12CC3CC(CC(C3)C1)C2", "note": "(centres undefined)", "inhibition": "inactive: 9.52%"}, {"smiles": "Cc1c2c(nc3ccccc13)SC(C(Cl)Cl)C2", "note": "(centres undefined)", "inhibition": "inactive: 8.03%"}, {"smiles": "Cc1ccc(-c2nnc3n2CC(CI)S3)cc1", "note": "(centres undefined)", "inhibition": "inactive: 25.4%"}, {"smiles": "O=[N+]([O-])c1cc([N+](=O)[O-])c(-c2ccn[nH]2)s1", "inhibition": "inactive: 6.6%"}, {"smiles": "CCN(CC)C(=S)SC(NC=O)C(Cl)(Cl)Cl", "note": "(centres undefined)", "inhibition": "inactive: 6.63%"}, {"smiles": "CC(C)NC(=O)NP(=O)(Oc1ccccc1)Oc1ccccc1", "inhibition": "inactive: 10%"}, {"smiles": "CC(C)c1ccc(OP(=O)(Nc2ccccn2)Oc2ccccc2F)cc1", "note": "(centres undefined)", "inhibition": "inactive: 10.6%"}, {"smiles": "[N-]=[N+]=NCC(N)=O", "inhibition": "inactive: 15.4%"}, {"smiles": "ClCCSc1nnc(-c2cccnc2)o1", "inhibition": "inactive: 10.6%"}, {"smiles": "O=[As]c1ccc(S(=O)(=O)NCCO)cc1", "note": "(centres undefined)", "inhibition": "inactive: 5.22%"}, {"smiles": "Cc1ccc2nc3c(c(C)c2c1)CC(C(Cl)Cl)S3", "note": "(centres undefined)", "inhibition": "inactive: 10.1%"}, {"smiles": "Cc1ccc(OP(=O)(Nc2ccc([N+](=O)[O-])cn2)Oc2ccc(C)cc2)cc1", "inhibition": "inactive: 13.9%"}, {"smiles": "C[As](=O)(O)c1cccc(C(=O)O)c1", "inhibition": "inactive: 15.7%"}, {"smiles": "O=[As](O)(c1ccc(O)cc1)c1ccccc1O", "inhibition": "inactive: -0.7%"}]}]}
